Measurements published in patent US9468627B2, “Slow-release formulations of 5-hydroxytryptophan as an adjunct to pro-serotonergic therapies” (Duke University, priority 2010, dated 2016).

Assays:
brain tissue 5-HT = test: Tissue 5-HT and 5-HIAA analysis (HPLC-EC) in frontal cortex and hippocampus; assay type: in vivo; conditions: 5-HTP in drinking water 4 mg/ml≈320 mg/kg/day, no carbidopa, 5-HT deficient Tph2KI (R439H) mice
[1] = FLX plasma levels at the drinking-water dose used; assay type: in vivo, mice; conditions: FLX 155 mg/L drinking water, ~20 mg/kg/d

Row | Structure (SMILES) | brain/tissue 5-HT level (brain tissue 5-HT) | FLX plasma levels relative to the clinical [1]
1 | N[C@@H](Cc1c[nH]c2ccc(O)cc12)C(=O)O [5-HTP, 5-hydroxytryptophan] | robustly restored brain 5-HT; also recorded: restores tissue 5-HT levels; also recorded: restores brain 5-HT | 
2 | CNCCC(Oc1ccc(C(F)(F)F)cc1)c1ccccc1 (centres unmarked) [FLX, fluoxetine] |  | ~10 × the clinical

“Also recorded” adds a separate entry of the source.
